# Test results as given in US9757330B2, “Recipe for in-situ gel, and implant, drug delivery system formed thereby” (INDUSTRIAL TECHNOLOGY RESEARCH INSTITUTE, priority 2013, dated 2017).
# Conditions: agarose/urea in-situ hydrogel, 5 ml PBS, on the 14 day
substance,measurement,value
bovine serum albumin [BSA],release of BSA from the in-situ hydrogel,79%
